Screening data from PubChem.
Only some compounds are listed: those with a hit (about 1.9% of all), similar ones and a draw of the others.
PDI turbidity: inhibitors of human protein disulfide isomerase; P07237; PDI insulin aggregation turbidity, A650, 90 min; inhibition, % at 10 µM; actives 0.052% (n = 350,000); AID 588391;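 active means mean inhibition across replicates of 30% or more, whatever share of single replicates reach that level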
ERp5 block: ERp5 (human) disulfide isomerase inhibition. AID 651711. actives 0.05% (n = 350,000). inhibition, % at 9.99 µM. ERp5 insulin aggregation, absorbance 650 nm, 90 min;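 active means mean replicate inhibition above about 25%, with every replicate also reaching it, limit read from the data, passing the limit was not always enough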
ARNT TACC3 PPI: ARNT/TACC3 interaction disruption | Q9Y6A5 | AlphaScreen His-ARNT PAS-B/GST-TACC3 binding, luminescence; TACC3 fragment carries E629A point mutation | inhibition, % at 9.99 µM | actives 0.66% (n = 390,000);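 active means mean inhibition of replicates at least 50% and at least half of replicates each reaching 50%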;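 further: 0% = complete ARNT plus TACC3 wells and 100% = ARNT alone without TACC3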
PglD DTNB: PglD (C. jejuni) enzyme inhibition; purified PglD enzyme, DTNB colorimetric CoA detection; inhibition, % at 12.5 µM; actives 0.098% (n = 360,000); AID 602405; in the data active means inhibition above about 16%, passing the limit was not always enough
Yeast UUG start-1: yeast start codon fidelity modulation | S. cerevisiae UUG-firefly luciferase reporter, luminescence/redox ratio | activity score, % at 18.7 µM | 0.13% of 350,000 active | AID 602363;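 active means replicate mean at a twofold rise or more, about +100% in these data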;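 further: firefly luciferase made from a UUG start codon reports start codon fidelity; reporter light over untreated wells divided by growth signal over untreated wells; some hits fall short of that in this replicate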
FGF22 binding-1: binders of recombinant human FGF22 by thermal shift; activity (Tm shift, normalised), % at 9.99 µM; Q9HCT0; SYPRO orange fluorescence; percent of sucrose octasulfate shift, DMSO zero; AID 651658; actives 1.5% (n = 340,000);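 active means mean Tm shift, scaled 0 neutral to 100 positive control, at about 1.3% or above, every replicate too, limit read from the data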
Yeast UUG start-2: modulators of start codon recognition fidelity in yeast; 540 tested, under 10 active; shares compounds with Yeast UUG start-1; S. cerevisiae UUG-start firefly luciferase, luminescence, 4 h; 100% means double the DMSO signal; activation, % at 38 µM;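 active means signal increase whose fitted curve reaches an absolute level of 40 at a concentration under 10 µM; inactive means activity opposite to the expected increase, or the rest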
PglD confirm: PglD (C. jejuni) inhibition confirmation; shares compounds with PglD DTNB; Purified C. jejuni PglD, DTNB absorbance 412 nm; inhibition, % at 20 µM; 320 tested, under 10 active; AID 743156;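 active means mean inhibition across replicates of at least 20% with every single replicate also at 20% or more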;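 further: initial rate of CoA release by acetyl transfer from AcCoA to the UDP-4-amino sugar; 0% = median of neutral control wells and 100% = median of positive control wells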
ARNT Alpha ctr: interferes with AlphaScreen signal, flagging false ARNT-TACC3 hits; shares compounds with ARNT TACC3 PPI; His-ARNT PASB-GST AlphaScreen artifact counter-screen, luminescence; AC50, µM (doses to about 68 µM), inactives show top-dose activity change, negative = signal decrease; actives 50% (n = 1,200); AID 651705;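 active means every separate test run was called active for a drop in luminescence, with AC50 within twice the top valid dose, actives reach about 71 µM in these data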
FGF22 binding-2: binds human FGF22 shifting its melting temperature; shares compounds with FGF22 binding-1; recombinant FGF22 thermal shift, SYPRO orange fluorescence; thermal shift activity, °C (ΔTm) at 38 µM; actives 2% (n = 1,000);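 active means fitted rise in melting shift crosses a set limit at or below the top valid dose tested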
TSA no protein: compound-only SYPRO artifact for FGF22 binders; shares compounds with FGF22 binding-1; compound-only SYPRO orange thermal shift counter-screen, no protein; AC50, µM (highest dose often 38 µM); actives 2% (n = 1,000);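 active means rising signal whose fitted curve reaches the 0.54 level within the top valid dose, showing a melting point, actives reach about 13 µM in these data; inactive means the rest, including activity in the opposite direction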; further: value is where the raw curve crosses a fixed level and not half-maximal
Starred values were filed as active, the others as inactive; i = inactive; · = no result given.

SMILES | PDI turbidity | ERp5 block | ARNT TACC3 PPI | PglD DTNB | Yeast UUG start-1 | FGF22 binding-1 | others
COc1ccc(C#Cc2ccc([C@@H]3[C@H](CO)N4CCCCN(C(=O)Cc5ccccc5)C[C@@H]34)cc2)cc1 | · | -0.1 | -5.6 | 8.7 | -12.8 | 0.1
CCCCOC(=O)C1=C(N)OC2=C(C(=O)CCC2)[C@]12C(=O)Nc1ccccc12 | 6.5 | · | -7.9 | 3.8 | 125.3* | · | Yeast UUG start-2=-0.5
CC=Cc1ccc2n(c1=O)C[C@H]1[C@H](CO)[C@@H](C(=O)OC)[C@@H]2N1S(=O)(=O)c1cccc(C)c1 (mixture of isomers) | · | 2.4 | -2.6 | -2.2 | · | -0.2
O=C(Nc1ccccc1F)OC1CN2CCC1CC2 (centres undefined) | -2.4 | 0.4 | 0.9 | 0.1 | 165.2* | 0.0 | Yeast UUG start-2=1.8
O=C(Nc1ccccc1Cl)OC1CN2CCC1CC2 (centres undefined) | -4.6 | 6.1 | 2.1 | · | · | 0.1
C=CCn1c(O)c(C=NC2CCN(Cc3ccccc3)CC2)c(=O)[nH]c1=O | 4.6 | -1.7 | -6.3 | 20.0* | -3.0 | 0.2 | PglD confirm=-7.3
CCCC(C)C1C(C#N)=C(N)Oc2c1c(=O)oc1ccccc21 (centres undefined) | -1.5 | · | -3.0 | 24.3* | 0.3 | · | PglD confirm=-3.7
N#Cc1cccc(-c2ccc([C@H]3[C@@H](CO)N4CCCCN(C(=O)Cc5ccccc5)C[C@@H]34)cc2)c1 | · | 5.7 | 1.8 | -0.9 | -5.6 | -0.4
CC(=O)NC1CC2CCCC(C1)N2 (centres undefined) | 6.8 | · | 1.6 | 26.7* | -21.2 | · | PglD confirm=-4.0
CC(=O)NC1CC2CCC(C1)N2 (centres undefined) | -8.3 | · | -2.3 | 4.5 | -14.9 | ·
O=C1CNC[C@H]2[C@@H](c3ccc(Br)cc3)[C@H](CO)N12 | · | -1.1 | · | · | · | 0.1
CN(C)C1C(=O)C(C(N)=O)=C(O)C2(O)C(=O)C3=C(O)c4c(O)cccc4C(C)(O)C3CC12 (centres undefined) | -3.8 | · | 4.5 | -6.3 | -2.5 | ·
CN(C)[C@@H]1C(=O)C(C(N)=O)=C(O)[C@@]2(O)C(=O)C3=C(O)c4c(O)cccc4[C@@](C)(O)C3[C@H](O)C12 (some centres undefined) | 5.4 | 2.3 | 44.6* | 3.4 | -9.8 | -0.5 | ARNT Alpha ctr=-1.2%
CCC(=O)N1[C@@H]2c3ccc(-c4ccc(F)cc4)c(=O)n3C[C@H]1[C@H](CO)[C@H]2C(=O)OC | · | 0.9 | 3.6 | 9.9 | · | 0.0
O=c1[nH]c(O)c(Cc2ccc3c(c2)OCO3)c(=O)[nH]1 | -1.0 | -9.6 | 23.2* | · | · | -0.4 | ARNT Alpha ctr=7.2%
O=C(Cc1ccncc1)N1CCCCN2[C@H](CO)[C@H](c3ccc(C#Cc4ccccc4F)cc3)[C@@H]2C1 | · | · | 21.7 | 2.6 | 7.0 | 0.0
COc1cc2c(c(OC)c1OC)-c1ccc(O)c(=O)cc1[C@@H](NC(C)=O)CC2 | -1.8 | 12.7 | 68.9* | 1.4 | -29.0 | 0.0 | ARNT Alpha ctr=-22.3%
Cc1cccc(NC(=O)C(C)N2CC=C(c3ccccc3)CC2)c1 (centres undefined) | 7.0 | -5.9 | 62.2* | · | · | 0.1 | ARNT Alpha ctr=-27.0%
O=C1CNC[C@@H]2[C@H](c3ccc(Br)cc3)[C@H](CO)N12 | · | 7.6 | · | · | · | 0.1
CCOC(=O)c1cnc(N2CC2)nc1N | -12.9 | -5.2 | 5.7 | 2.5 | -5.0 | 0.2

Continued, overlapping the part above by 3 compounds.
SMILES | PDI turbidity | ERp5 block | ARNT TACC3 PPI | PglD DTNB | Yeast UUG start-1 | FGF22 binding-1 | others
Cc1cccc(NC(=O)C(C)N2CC=C(c3ccccc3)CC2)c1 (centres undefined) | 7.0 | -5.9 | 62.2* | · | · | 0.1 | ARNT Alpha ctr=-27.0%
O=C1CNC[C@@H]2[C@H](c3ccc(Br)cc3)[C@H](CO)N12 | · | 7.6 | · | · | · | 0.1
CCOC(=O)c1cnc(N2CC2)nc1N | -12.9 | -5.2 | 5.7 | 2.5 | -5.0 | 0.2
CCOC(=O)c1cc2c(cn1)[C@H](CCO)NC2 | -3.4 | -1.7 | 58.6* | 4.5 | 1.5 | -0.4 | ARNT Alpha ctr=-15.4%
COc1ccc(OC(=O)N(C)C[C@H]2OCc3ccccc3-c3c(n(C)c4ccccc34)C(=O)N([C@H](C)CO)C[C@H]2C)cc1 | · | 5.1 | · | · | · | ·
COc1ccc(C#Cc2ccc3c(c2)O[C@H](CN(C)S(=O)(=O)c2ccccc2F)[C@@H](C)CN([C@@H](C)CO)S3(=O)=O)cc1 | · | 6.9 | 6.2 | -0.6 | -14.4 | 2.1* | FGF22 binding-2=0.016;TSA no protein=2.41µM*
N#Cc1cccc(-c2ccc([C@H]3[C@@H](CO)N4CCCCN(C(=O)Cc5ccccc5)C[C@H]34)cc2)c1 | · | -0.2 | 2.9 | 2.8 | -4.2 | -0.1
O=c1oc2ccccc2c(O)c1C(c1ccccn1)c1c(O)c2ccccc2oc1=O | 0.2 | -3.1 | -2.9 | · | · | -0.1
CCOC(=O)C(c1c(O)c2ccccc2oc1=O)c1c(O)c2ccccc2oc1=O | -2.5 | 4.0 | · | -0.9 | -17.2 | 1.8* | FGF22 binding-2=0.003;TSA no protein=i
C/C=C/c1ccc([C@@H]2[C@H]3CN(C(=O)Cc4ccncc4)CCCCN3[C@H]2CO)cc1 | · | -0.6 | -4.3 | -0.7 | -12.4 | 1.3* | FGF22 binding-2=0.039;TSA no protein=i
CC(C)c1ccc(-n2c(O)c(/C=N/NC(=O)c3ccccc3O)c(=O)[nH]c2=S)cc1 | -1.3 | 1.6 | 84.9* | -4.1 | -26.4 | 1.4* | FGF22 binding-2=0.367;TSA no protein=i
CC=Cc1ccc2n(c1=O)C[C@H]1[C@H](CO)[C@@H](C(=O)O)[C@@H]2N1S(=O)(=O)c1ccccc1C (mixture of isomers) | · | -3.0 | -0.3 | 3.6 | · | 0.0
